Fluorescence response (max-min) data for seven compounds are collected here from PubChem BioAssay AID678 (Vanderbilt High Throughput Screening Facility, 2007).

SMILES strings stand for the structures. What follows is the remainder of the data, with few or none of the hits. The source made the active and inactive calls.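 How the source made its calls: active means fluorescence response below the plate's average for near-maximal glutamate wells, less 3 SD of those wells; inactive means the rest.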

In the experiment the target is Metabotropic glutamate receptor 4 (Homo sapiens) (UniProt Q14833). Description: human mGluR4 response to M1 antagonist hits, M1 allosteric modulator project, cell-based, antagonist mode, secondary assay 1 (AID 678).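 Further: raw unnormalized fluorescence span taken in the window right after glutamate addition.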 To be noted: CHO-mGluR4 calcium flux, Fluo-4 fluorescence, glutamate EC80; at 10 µM; active compounds read low. For orientation: Calcium assays in cells follow changes in intracellular calcium, usually with a dye or a luminescent sensor.
For the compound `Cc1ccccc1C(OCCN(C)C)c1ccccc1` (configuration not stated), the fluorescence response (max-min) was inactive: 241. Consider `CN1CCC(=C2c3ccccc3CC(=O)c3sccc32)CC1`, for which the fluorescence response (max-min) is inactive: 174. Consider `COc1ccc(CCN2CCC(Nc3nc4ccccc4n3Cc3ccc(F)cc3)CC2)cc1`, for which the fluorescence response (max-min) was inactive: 248. Take `COc1cc2nc(N3CCN(C(=O)C4CCCO4)CC3)nc(N)c2cc1OC` (configuration not stated): the fluorescence response (max-min) is inactive: 261.

Regarding `CN(C)CCCN1c2ccccc2CCc2ccc(Cl)cc21`, the fluorescence response (max-min) is inactive: 241. Next, `CCOC(=O)N1CCC(=C2c3ccc(Cl)cc3CCc3cccnc32)CC1`: inactive: 273. On to `CNCCCC12CCC(c3ccccc31)c1ccccc12`, for which the fluorescence response (max-min) was inactive: 255.
